Measurements: patent US20160324855A1, “COMBINATION OF A 6-OXO-1,6-DIHYDRO-PYRIDAZINE DERIVATIVE HAVING ANTI-CANCER ACTIVITY WITH GEFITINIB” (MERCK PATENT GMBH, priority 2014, published 2016)

Experiments:
human LU0858 lung tumor = assay: Combination with EGFR inhibitor Gefitinib in a human lung cancer model, LU0858; type: in vivo; details: LU0858 patient-derived lung tumor (EGFR L858R, c-Met overexpressing) s.c. in female BaIB/c nude mice; oral, 5 days on and 2 days off; benzonitrile hydrochloride hydrate 100 mg/kg, gefitinib 150 mg/kg, monotherapy or combination; end of treatment
human LU1868 lung tumor = assay: Combination with EGFR inhibitor Gefitinib in a human lung cancer model, LU1868; type: in vivo; details: LU1868 patient-derived lung tumor (EGFR L858R, T790M, c-Met expressing) s.c. in female BaIB/c nude mice; oral, 5 days on and 2 days off; benzonitrile hydrochloride hydrate 100 mg/kg, Gefitinib 150 mg/kg, monotherapy or combination; end of treatment

CN1CCC(COc2cnc(-c3cccc(Cn4nc(-c5cccc(C#N)c5)ccc4=O)c3)nc2)CC1.Cl.O [3-(1-{3-[5-(1-Methyl-piperidin-4-ylmethoxy)-pyrimidin-2-yl]-benzyl}-6-oxo-1,6-dihydro-pyridazin-3-yl)-benzonitrile hydrochloride hydrate]
T/C value (human LU0858 lung tumor): 3% | T/C value (human LU1868 lung tumor): 65%

COc1cc2ncnc(Nc3ccc(F)c(Cl)c3)c2cc1OCCCN1CCOCC1 [Gefitinib]
T/C value (human LU0858 lung tumor): 100% | T/C value (human LU1868 lung tumor): 71%
